The data set relates to extractable fraction of human SC D-squame tape strippings (acid phosphatase present on the skin). In words: Dephosphorylation of resveratrol^Pi by extractable fraction of stratum corneum D-squame tape strippings. The conditions noted are these: resveratrol^Pi 0.22 mg/ml or 0.47 mM, FIG. 3. The procedure: D-squame tape strippings were collected on the inner lower arm of one panelist. […] The extractable fraction was transferred to another vial and mixed with resveratrol^Pi stock-solution. The concentration of resveratrol^Pi during the incubation was 0.22 mg/ml or 0.47 mM. At various incubation time points a 25 μl aliquot of the incubation mixture was diluted in 25 μl 10 mM o-phosphoric acid and 50 μl of MeOH and injected onto the HPLC system.

As for resveratrol diphosphate, the “correlation (r) of amount with incubation time” value (N=15) was −0.27. The “conversion on incubation with extractable fraction of SC D-squame tape strippings (HPLC)” value (pH 5.6) is “did not change significantly as a function of time”.

(Values after patent US8465973B2, “Topical compositions containing phosphorylated polyphenols” (Estee Lauder Coordination Center N.V., priority 2004, dated 2013).)
